The text below walks through data of US20220305048A1, “USE OF HEPARIN TO PROMOTE TYPE 1 INTERFERON SIGNALING” (Dana-Farber Cancer Institute, Inc., priority 2019, published 2022).

For test [1], the system named is B16F10 mouse melanoma cells; Lewis Lung Carcinoma (LLC) mouse non-small-cell lung cancer cells. The experiment in a line: CXCL10 ELISA of conditioned media, interferons +/- heparin. As to conditions: interferon 5 ng/mL +/- heparin 1 μg/mL, 24 hours. It is filed as cell-based. From the text: FIGS. 8A to 8D include plots and Western blots showing heparin enhances type I interferon effects but not interferon gamma effects. […] ANOVA p<0.0001. *p<0.05 ****p<0.0001 by Bonferroni corrected pairwise comparison.
This effect was not seen with IFNg.
Background: ELISA stands for enzyme-linked immunosorbent assay.

In test [2] the test system is B16F10 mouse melanoma cells. In words: CXCL10 ELISA of conditioned media. The format is cell-based. Particulars: IFNb 1, 5, 10 and 100 ng/mL, heparin 1 μg/mL.

B1: IFNb: interferon beta (R&D systems) (protein, UniProt P01574 22-187, looked up)
Interferon beta: MSYNLLGFLQRSSNFQCQKLLWQLNGRLEYCLKDRMNFDIPEEIKQLQQFQKEDAALTIYEMLQNIFAIFRQDSSSTGWNETIVENLLANVYHQINHLKTVLEEKLEKEDFTRGKLMSSLHLKRYYGRILHYLKAKEYSHCAWTIVRVEILRNFYFINRLTGYLRN
Turning to B1, the “amount of CXCL10 in the media with heparin compared to interferon alone” value in test [1] is listed as “increase significantly”. Further, the “amount of CXCL10 in the culture media in the presence vs absence of heparin, IFNb dose response” value in test [2] was “significantly higher amounts of CXCL10”.
